# Reference: patent publication US6841359 (GENERAL HOSPITAL, dated 2005)
# Sequences of proteins named here, by UniProt entry; tags and fusion partners are left off. Residues count along the entry.
# UniProt P22629, 37-163 limits assumed: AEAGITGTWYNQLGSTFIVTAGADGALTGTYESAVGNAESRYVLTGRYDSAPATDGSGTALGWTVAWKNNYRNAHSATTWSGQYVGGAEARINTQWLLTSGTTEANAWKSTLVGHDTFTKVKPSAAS
# B1: SB10 (peptide)
# peptide: MDEKTHWHERAQELVGGLLLHDHPQRLLLEPRGPRPLRGLVHERGHQPQPLAGRVEEADGGLLRDGGGELEPLVREGEDHLEPLDDELDAGPRGLVWRLPHHH
# modifications: C-terminus joined through puromycin to a short DNA oligonucleotide (DNA-tagged peptide); 35S-methionine label
# notes: also called peptide SB10
# B2: SB11 (peptide)
# peptide: MDEKTHWHERVHHLADGLEQHPQGQRRPLVERHRQVPRGLVRELQHEGLPLEHPAGVHVIRLHQGDDRDVDGLVDGHGRDVRGLEREVGDGPHRLVWRLPPS
# modifications: C-terminus joined through puromycin to a short DNA oligonucleotide (DNA-tagged peptide); 35S-methionine label
# notes: also called peptide SB11
# B3: SB12 (peptide)
# peptide: MDKDPLLEELEELRERLVHHPQGGLLPLRGQVGHDAERLGAEVDDLRGGLLDEPQRAVAGLHHVPHRVGQRLVHEVRELDEGLLDQRDDLRQRLVWRLPPS
# modifications: C-terminus joined through puromycin to a short DNA oligonucleotide (DNA-tagged peptide); 35S-methionine label
# notes: also called peptide SB12
# B4: SB13 (peptide)
# peptide: MEREDPLDEQLRELREALVDHPQGGAQALHRHDGGEHVPLRRVQHRLQPGLQHHLEPQPLGLLGELQARLQPLAGEHEGDGAGLQRVPGHQGRRLVWRLPPS
# modifications: C-terminus joined through puromycin to a short DNA oligonucleotide (DNA-tagged peptide); 35S-methionine label
# notes: also called peptide SB13
# B5: SB14 (peptide)
# peptide: MDEKTHRTLSVSLSFNDWLGQTKACWRLVEGLHGHPQGLVREHEVDVLPLAEEVQQVVGGLADGVEQPGGGLLHRAQRVDHPLPDHAGQVLGRLVWRLPPS
# modifications: C-terminus joined through puromycin to a short DNA oligonucleotide (DNA-tagged peptide); 35S-methionine label
# notes: also called peptide SB14
# B6: SB15 (peptide)
# peptide: MDEKTHWLEDLKGVLKDCLKDLMDFTKDCRSPRVQPQPLLHHDRGEPVPLLREAGRDLGGLGPRAPRQARPLHHGRHDLHEPLVLQDHPQGGPLVCGCHHH
# modifications: C-terminus joined through puromycin to a short DNA oligonucleotide (DNA-tagged peptide); 35S-methionine label
# notes: also called peptide SB15
# B7: SB16 (peptide)
# peptide: MDEKTHWVLQLHPQGDRLGPRHGGDDVRLVGQGEGVLEGLDGRPRRRRHRLPREDEHRVRALVDQVRDLAERLVEEVDGGVEALRHLGLPQDEPRSGGCHHH
# modifications: C-terminus joined through puromycin to a short DNA oligonucleotide (DNA-tagged peptide); 35S-methionine label
# notes: also called peptide SB16
# B8: SB17 (peptide)
# peptide: MDEKTHWVGDLQEPLGPLHGGVGEVPGGLVLRHHPQRDRLVDGVGPHGRALARRPHRVVEGLHHLLQRGGERLPPDGPRQLGLLGGELDRADPALVWRLPPS
# modifications: C-terminus joined through puromycin to a short DNA oligonucleotide (DNA-tagged peptide); 35S-methionine label
# notes: also called peptide SB17
# B9: SB18 (peptide)
# peptide: MDEKTHCAVNVNVGLTHWCHRVAHLQPLDPHPQGDHLRLEPLGHALVDPLVQGVEEVVRPLQLDVGVQRVALVEQVAEVGEGLDHEAGQAHGALVWRLPPS
# modifications: C-terminus joined through puromycin to a short DNA oligonucleotide (DNA-tagged peptide); 35S-methionine label
# notes: also called peptide SB18
# B10: SB19 (peptide)
# peptide: MDEKTTGWRGGHVVEGLAGELEQLRARLEHHPQGQREPLVQEVEDVDEGLVQDLHGVVAGLLDPVEKLLTDWFKKFKNVSKDCKMTFYLEMYDWSGGCKLG
# modifications: C-terminus joined through puromycin to a short DNA oligonucleotide (DNA-tagged peptide); 35S-methionine label
# notes: also called peptide SB19; clone SB19
# B11: SB20 (peptide)
# peptide: MNEKTHCKLNFKVNIADWLAEFHGGGQGLLGRRDGVVQRLVDGVQERVERLDRDPGLGDLRLELHHRDHRLRLGGEHLLRDHPLEPDDHLVVGGLVWRLPPS
# modifications: C-terminus joined through puromycin to a short DNA oligonucleotide (DNA-tagged peptide); 35S-methionine label
# notes: also called peptide SB20
# Assays:
# streptavidin [1] = biological target: T1, streptavidin (UniProt P22629 37-163, limits assumed); assay: streptavidin column-binding assay, 35S DNA-tagged peptide on immobilized streptavidin, biotin elution
# T1 construct: The same protein was used free (EMSA, Biacore, SBIA) and immobilized on a matrix or plate; also called immobilized streptavidin; Ultralink immobilized streptavidin plus
# Experimental: The resulting purified DNA-tagged peptides (DTP) were analyzed in a streptavidin column-binding assay, in which ~500 pM ^35S-labeled DTP were mixed with 50 µL of the streptavidin matrix in streptavidin-binding buffer, in a total volume of 300 µL, and incubated for 10 minutes at room temperature with agitation. Then, the contents were loaded onto a chromatography column. The column was drained and washed with 80 column volumes of streptavidin-binding buffer, and then eluted with three consecutive aliquots (3 column volumes each) of streptavidin-binding buffer plus 2 mM biotin over a 15 minute period. All fractions (flow-through, washes, elutions, and irreversibly bound counts) were analyzed by scintillation counting to determine the fraction of DTP that bound streptavidin and eluted with biotin (Table 1).
# streptavidin [2] = biological target: T1, streptavidin; assay: EMSA, DNA-tagged peptide with free streptavidin; SD 16, n=4
# Experimental: (§1) The dissociation constants of the selected peptides for streptavidin were measuring using an electrophoretic mobility shift assay (EMSA). In this assay, DTP's were incubated with varying amounts of pure streptavidin (Pierce Immunopure Streptavidin, Rockford, Ill.) in streptavidin-binding buffer plus 5% glycerol to increase the density of the solution so that it could collect at the bottom of the gel well. After incubating at room temperature for 20 minutes, the reactions mixtures were moved into the cold room, where they remained for 10 minutes before being carefully loaded onto a 10% polyacrylamide:bisacrylamide (37.5:1, National Diagnostics, Atlanta, Ga.) gel (thickness 0.7 mm, height 16 cm, width 18 cm) containing 2×TBE, 0.1% Triton X-100 and 5% glycerol. The gel, which had been pre-run for 30 minutes at 13 watts, and the running buffer were pre-cooled to 4° C. Then, the gel was run in the cold room at 13 watts, which increased the temperature of the gel to about 20° C. The gel was run for 45 to 120 minutes, depending on the mobility of the particular DTP. Then, the gel was fixed in 10% acetic acid and 10% methanol for 15 minutes, transferred to electrophoresis paper (Ahlstrom, Mt. Holly Springs, Pa.), dried, and analyzed using a PhosphorImager (Molecular Dynamics, Sunnyvale, Calif.).
# streptavidin [3] = biological target: T1, streptavidin; assay: EMSA, DNA-tagged peptide with free streptavidin; SD 1.8, n=10
# Experimental: as §1
binder,measurement,setting,value
B1,% binding and eluting,streptavidin [1],15%
B2,% binding and eluting,streptavidin [1],68%
B3,% binding and eluting,streptavidin [1],73%
B4,% binding and eluting,streptavidin [1],64%
B5,% binding and eluting,streptavidin [1],11%
B6,Kd,streptavidin [2],92 nM
same,% binding and eluting,streptavidin [1],44%
B7,% binding and eluting,streptavidin [1],50%
B8,% binding and eluting,streptavidin [1],8.3%
B9,% binding and eluting,streptavidin [1],58%
B10,Kd,streptavidin [3],10 nM
same,% binding and eluting,streptavidin [1],85%
B11,% binding and eluting,streptavidin [1],34%
